Experimental data published in patent EP4840855A1, “SULFONAMIDE DERIVATIVE, PREPARATION METHOD THEREFOR AND USE THEREOF” (dated 2026).

The chains behind the UniProt entries cited, without tags or fusion partners.
UniProt P17812, whole entry: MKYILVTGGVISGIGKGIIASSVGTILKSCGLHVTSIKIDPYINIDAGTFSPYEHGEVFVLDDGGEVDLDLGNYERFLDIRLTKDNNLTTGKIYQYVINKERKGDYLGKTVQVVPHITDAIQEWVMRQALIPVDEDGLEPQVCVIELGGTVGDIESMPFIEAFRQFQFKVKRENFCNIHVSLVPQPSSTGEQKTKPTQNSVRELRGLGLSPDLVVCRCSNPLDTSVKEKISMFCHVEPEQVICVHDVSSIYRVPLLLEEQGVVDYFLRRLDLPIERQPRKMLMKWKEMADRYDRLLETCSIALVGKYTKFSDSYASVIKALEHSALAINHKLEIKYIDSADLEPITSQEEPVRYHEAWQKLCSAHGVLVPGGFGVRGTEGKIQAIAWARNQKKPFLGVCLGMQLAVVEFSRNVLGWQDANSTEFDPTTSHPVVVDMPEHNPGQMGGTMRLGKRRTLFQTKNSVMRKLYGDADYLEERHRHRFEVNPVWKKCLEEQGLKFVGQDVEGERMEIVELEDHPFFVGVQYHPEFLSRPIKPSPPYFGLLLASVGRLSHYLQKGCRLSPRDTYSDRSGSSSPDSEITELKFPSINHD

Experiments:
[1] = Pharmacokinetic testing in mice (plasma concentration by LC-MS/MS); conditions: ICR mice, male, Oral (10 mg/kg), fasted overnight
Procedure: ICR mice were used as test animals. Plasma concentrations of the test compounds at different time points were measured by LC/MS/MS after intragastrical administration of the reference compound STP-B and the compounds of the present disclosure, and the pharmacokinetic characteristics of the compounds of the present disclosure in mice were studied.
ICR mice, male, 30.8 to 38.0 g, purchased from Vital River Laboratory Animal Technology Co., Ltd.
An appropriate amount of the test compound was weighed, and an appropriate amount of DMA (N,N-dimethylacetamide), 30% Solutol HS15 (30% polyethylene glycol-15 hydroxystearate), and saline were added sequentially, mixed by ultrasonication and vortexing to prepare a 1 mg/mL dosing formulation. The ratio of DMA:30% Solutol HS15:saline was 10:10:80 (v/v/v).
ICR mice in each test compound injection group (9 mice per group) were fasted overnight and then administered intragastrically (PO, compound dose was 10 mg/kg, dosing volume was 10 mL/kg), and fed 4 hours after dosing.
About 0.1 mL of blood was collected from the orbit before dosing and at 0.25 h, 0.5 h, 1 h, 2 h, 4 h, 8 h, 10 h, and 24 h after dosing, and whole blood samples were placed in anticoagulant tubes containing EDTA-K2. After blood sample collection, samples were placed on ice and centrifuged to separate plasma (centrifugation conditions: 1500 g, 10 minutes). The collected plasma was stored at -40 to -20°C before analysis.
The content of test compounds in mouse plasma after intragastrical administration was determined by LC-MS/MS.

[2] = test system: MIA PaCa-2 cells (human pancreatic cancer cells); assay: Inhibition of MIA PaCa-2 cell proliferation (CellTiter-Glo cell viability); conditions: 120 hours culture
Procedure: The following method was used to determine the effect of the compounds of the present disclosure on the proliferation of MIA PaCa-2 cells (human pancreatic cancer cells). MIA PaCa-2 cells were purchased from the Cell Resource Center of Shanghai Institutes for Biological Sciences, Chinese Academy of Sciences, and were cultured in DMEM medium containing 10% fetal bovine serum, 2.5% heat-inactivated horse serum, 1% sodium pyruvate (Gibco, catalog number 11360070), 100 U penicillin, and 100 µg/mL streptomycin. Cell viability was determined using CellTiter-Glo® Luminescent Cell Viability Assay kit (Promega, catalog number G7573).
The experimental method was performed according to the steps in the kit's manual, briefly described as follows: The test compound was first dissolved in DMSO to prepare a 10 mM stock solution, then diluted with medium to prepare test samples, with a final concentration range of the compound from 10000 nM to 1.52 nM. Cells in logarithmic growth phase were seeded into a 96-well cell culture plate at a density of 1000 cells per well, then the test compounds were added, and the cells were cultured in a 37°C CO2 incubator for 120 hours. After culture was completed, 50 µL of CellTiter-Glo detection reagent was added to each well, the plate was shaken for 5 minutes, then allowed to stand for 10 minutes, and then the luminescence value of each well of the sample was read on a microplate reader using Luminescence mode. The percentage inhibition rates of the compounds at each concentration point were calculated by comparing with the value of a control group (0.1% DMSO). Then nonlinear regression analysis was performed on compound concentration logarithm-inhibition rate in GraphPad Prism 9 software to obtain the IC50 values of the compounds for inhibiting cell proliferation, as shown in Table 5. Table 5 IC50 data for inhibition of MIA PaCa-2 cell proliferation by the compounds of the present disclosure

[3] = biological target: human cytidine triphosphate synthase 1 (hCTPS1) (Homo sapiens, UniProt P17812); assay: Inhibition on hCTPS1 enzyme activity (ADP-Glo Kinase Assay); conditions: 40 nM hCTPS1, 120 µM ATP, 160 µM UTP, 60 µM GTP, 100 µM L-Glutamine, 120 minutes
Procedure: The following method was used to determine the degree of inhibition on human cytidine triphosphate synthase 1 (hCTPS1) enzyme activity by the compounds of the present disclosure in vitro. ADP-Glo™ Kinase Assay kit (catalog number V9102) from Promega was used in this method. The kit's manual may be referred for a detailed experimental procedure.
The experimental procedure was briefly described as follows: The reaction was performed in a buffer containing 50 mM 4-hydroxyethylpiperazineethanesulfonic acid (HEPES), 10 mM magnesium chloride, 5 mM potassium chloride, 0.01% Pluronic F127, and 4 mM dithiothreitol in a 384-well plate. First, 100 nL of gradient-diluted compound was transferred to the 384-well plate via a nanoliter acoustic liquid transfer system (manufacturer: Labcyte; catalog number: Echo 655), and 2.5 µL of buffer containing hCTPS1 was added, followed by incubation in a 25°C incubator for 10 minutes. Then 2.5 µL of buffer containing ATP and UTP was added, followed by incubation in a 25°C incubator for 10 minutes. Finally, 5 µL of buffer containing GTP and L-glutamine (L-Gln) was added to initiate the reaction. The final reaction system was: 40 nM hCTPS1, 120 µM ATP, 160 µM UTP, 60 µM GTP, 100 µM L-Glutamine, 1% DMSO, with a total assay volume of 10 µL. The reaction was performed for 120 minutes, then 10 µL of ADP-Glo Reagent was added, followed by incubation for 1 hour. Then 20 µL of Kinase Detection Reagent was added, and after 1 hour, the chemiluminescence value was recorded on a Microbeta microplate reader (manufacturer: PerkinElmer; catalog number: Envision). The percentage inhibition rates of the compounds at each concentration were calculated by comparing the chemiluminescence intensity ratio with a control group (0.1% DMSO). The IC50 value of the compounds were obtained by nonlinear regression analysis of compound concentration logarithm-inhibition rate using GraphPad Prism 5 software, as shown in Table 2. Table 2 IC50 data for inhibition on hCTPS1 enzyme activity by the compounds of the present disclosure

SMILES | AUC AUC0-1(ng·h/mL) [1] [ng·h/mL] | Half-life T1/2 [1] [h] | Plasma concentration Cmax [1] [µg/mL] | IC50 [2] [nM] | IC50 [3] [nM]
CCOc1cncc(-c2ccc(NC(=O)C3(c4cc(NS(=O)(=O)C5CC5)ncn4)CC4CC4C3)c(F)c2)n1 (stereo not shown) | 651817 | 4.87 | 80.937 | 50.8 | 9
CCOc1cncc(-c2cnc(C(=O)NC3(c4cc(NS(=O)(=O)C5CC5)ncn4)CC4CC4C3)s2)n1 (stereo not shown) | 118000 | 7.41 | 23.8 | 45.5 | 9.2
